Values of other authors in patent publication US10729636B2, “Compositions comprising peptide [sequence]” (NURITAS LIMITED, priority 2016, dated 2020).

Settings: in vivo; cited from earlier work

PEG(2,40 K) conjugate of INF-alpha-2b: A PEG(2,40 K) conjugate of INF-alpha-2b
prolonged plasma half life time compared to the native protein: 330 fold
